Data reported in publication PMC5295242, “Synthesis of Natural O-Linked Carba-Disaccharides, (+)- and (−)-Pericosine E, and Their Analogues as α-Glucosidase Inhibitors” (Marine Drugs, 2017).

Molecular target: T1, α-mannosidase (Jack bean) (Canavalia ensiformis, UniProt C0HJB3)
T1 construct: purchased Sigma-Aldrich Co. LLC. lot; 055K7047 (catalogue number not given)
T1 sequence (C0HJB3 1-981): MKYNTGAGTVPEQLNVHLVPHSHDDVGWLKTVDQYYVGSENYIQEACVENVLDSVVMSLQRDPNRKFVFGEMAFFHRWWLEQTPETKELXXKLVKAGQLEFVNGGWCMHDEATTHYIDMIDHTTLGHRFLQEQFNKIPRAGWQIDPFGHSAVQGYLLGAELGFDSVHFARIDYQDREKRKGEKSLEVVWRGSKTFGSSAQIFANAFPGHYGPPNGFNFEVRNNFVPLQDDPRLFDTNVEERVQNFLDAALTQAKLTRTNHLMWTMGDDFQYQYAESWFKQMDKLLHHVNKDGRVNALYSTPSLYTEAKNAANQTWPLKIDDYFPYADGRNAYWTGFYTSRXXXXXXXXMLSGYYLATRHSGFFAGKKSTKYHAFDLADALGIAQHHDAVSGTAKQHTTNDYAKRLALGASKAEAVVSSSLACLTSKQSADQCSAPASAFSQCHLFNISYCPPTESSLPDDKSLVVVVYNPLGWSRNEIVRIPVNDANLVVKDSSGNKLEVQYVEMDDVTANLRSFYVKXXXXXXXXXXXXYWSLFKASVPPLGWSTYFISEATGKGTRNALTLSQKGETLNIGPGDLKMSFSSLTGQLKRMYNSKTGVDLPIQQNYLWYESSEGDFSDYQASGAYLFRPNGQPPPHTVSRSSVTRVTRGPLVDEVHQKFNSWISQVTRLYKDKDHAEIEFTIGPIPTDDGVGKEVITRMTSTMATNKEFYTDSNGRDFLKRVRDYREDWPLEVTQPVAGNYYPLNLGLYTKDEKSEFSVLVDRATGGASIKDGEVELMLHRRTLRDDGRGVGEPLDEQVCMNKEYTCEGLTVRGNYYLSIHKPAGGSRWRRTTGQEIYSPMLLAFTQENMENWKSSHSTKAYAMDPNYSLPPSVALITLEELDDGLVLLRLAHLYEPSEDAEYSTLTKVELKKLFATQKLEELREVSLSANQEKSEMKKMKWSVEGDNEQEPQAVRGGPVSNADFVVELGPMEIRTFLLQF
Assay: α-mannosidase inhibition assay (p-nitrophenyl α-D-mannopyranoside substrate)
Format: biochemical
Details: Jack bean enzyme; NI = no inhibition
Procedure: Eight samples synthesized here were used in a biological assay against three glycosidases, namely α-glucosidase (yeast), β-glucosidase (sweet almond), and α-mannosidase (Jack bean).
After incubation for 20 min at 37 °C, the reaction was interrupted by the addition of 0.5 M sodium carbonate (100 μL). The amount of p-nitrophenol liberated was measured colorimetrically at 400 nm (optical density at 400 nm: ODtest). […] Assays for β-glucosidase and α-mannosidase were carried out as outlined above using p-nitrophenyl β-D-glucopyranoside and α-D-mannopyranoside as the substrates.
Assays on β-glucosidase and α-mannnosidase inhibition of synthesized carbadisaccharides 6 and 21–23 were carried out in a similar fashion.

Row | SMILES | IC50
1 | OC[C@H]1NC[C@@H](O)[C@@H](O)[C@@H]1O [Deoxymannojirimycin, reference compound] | 640 µM
2 | OC[C@H]1NC[C@H](O)[C@@H](O)[C@@H]1O [Deoxynojirimycin (DNJ), 1-Deoxynojirimycin, reference compound] | > 10000 µM
